{"source": "paper PMC3147153", "about": "(Clinical cancer research : an official journal of the …, 2009)", "test": "Whole blood pharmacokinetics, LC-MS/MS, noncompartmental analysis", "format": "in vivo, patients", "conditions": "human, iv, 12.5 mg"}
{"smiles": "CO[C@H]1C[C@@H]2CC[C@@H](C)[C@@](O)(O2)C(=O)C(=O)N2CCCC[C@H]2C(=O)O[C@H]([C@H](C)C[C@@H]2CC[C@@H](OP(C)(C)=O)[C@H](OC)C2)CC(=O)[C@H](C)/C=C(\\C)[C@@H](O)[C@@H](OC)C(=O)[C@H](C)C[C@H](C)/C=C/C=C/C=C/1C", "note": "[deforolimus]", "values": [{"measurement": "half-life", "result": 47, "unit": "h"}]}
